Measurements taken from publication PMC11393638 (Regulatory toxicology and pharmacology : RTP, 2023).

Experiments:
[1] = system: CYP1A1-expressing TK6 cells; conditions: 10 μM; 24 h without exogenous metabolism
[2] = system: TK6 cells transduced with CYP2C19; conditions: 24 h
[3] = system: CYP2C19-expressing TK6 cells; assay: TK and HPRT gene mutation assays in CYP2C19-expressing TK6 cells; assay type: cell-based, human; conditions: for Relative survival (%): 4-h treatment, CYP2C19-expressing TK6 cells, no S9
[4] = system: CYP2C19-expressing TK6 cells; conditions: 0.5 μM; 24-h treatment
2D HepaRG cells = conditions: 24 h
3D HepaRG spheroids = conditions: 24 h
TK6 cells [5] = assay: TK and HPRT gene mutation assays in TK6 cells with hamster liver S9; conditions: for Relative survival (%): 4-h treatment, TK6 cells with 1% hamster liver S9
TK6 cells [6] = assay: In vitro micronucleus assay in TK6 cells
[7] = system: CYP2C9-expressing TK6 cells; conditions: 10 μM; 24 h without exogenous metabolism
[8] = 10% hamster liver S9, preincubation 30 min
[9] = 10% hamster liver S9, preincubation 60 min
[10] = 10% rat liver S9, preincubation 30 min
[11] = 30% hamster liver S9, preincubation 30 min
[12] = 30% hamster liver S9, preincubation 60 min

`CC(C)N(CC(O)COc1cccc2ccccc12)N=O` (stereo not shown) [NNP, N-nitroso propranolol] was tested, and the “Fold increase in %MN” value [1] was 3.6 fold, the “Maximum fold increase in %MN” value ([2]; 0.5 μM (highest concentration tested)) was 5.8 fold and the “Decrease in relative nuclear count (cytotoxicity)” value ([2]; 0.5 μM) was 42%. For the same compound, the “Relative survival (%)” value ([3]; 0.0625 μM) was 100.1%, the “Relative survival (%)” value ([3]; 0.125 μM) was 76.3% and the “Relative survival (%)” value ([3]; 0.25 μM) was 75.2%. For the same compound, the “Fold MF increase over control, HPRT gene” value ([3]; 0.5 μM) was 11.5 fold, the “Fold MF increase over control, TK gene” value ([3]; 0.5 μM) was 4.3 fold and the “Relative survival (%)” value ([3]; 0.5 μM) was 41.8%. For the same compound, the “Relative survival (RS)” value ([3]; 0.5 μM, second independent (repeat) experiment) was 39.4%, the “U/L (ratio of the BMDU to BMDL)” value (TA98; [8]) was 1.8 and the “U/L (ratio of the BMDU to BMDL)” value (TA98; [9]) was 2.1. The “U/L (ratio of the BMDU to BMDL)” value (TA98; [10]) was 1.7, the “U/L (ratio of the BMDU to BMDL)” value (TA98; 10% rat liver S9, preincubation 60 min) was 1.6 and the “U/L (ratio of the BMDU to BMDL)” value (TA98; [11]) was 1.7. The “U/L (ratio of the BMDU to BMDL)” value (TA98; [12]) was 1.7, the “U/L (ratio of the BMDU to BMDL)” value (TA98; 30% rat liver S9, preincubation 30 min) was 1.7 and the “U/L (ratio of the BMDU to BMDL)” value (TA98; 30% rat liver S9, preincubation 60 min) was 1.6. The “U/L (ratio of the BMDU to BMDL)” value (TA98; without S9, preincubation 30 min) was 2.5, the “U/L (ratio of the BMDU to BMDL)” value (TA98; without S9, preincubation 60 min) was 1.7 and the “Fold increase in γH2A.X fluorescence signal over the controls” value [4] was “more than 3 fold”. The “Relative viability (ATP assay)” value (2D HepaRG cells; 250 μM, 2D cultured cells) was 82%, the “Fold increase in % tail DNA compared to control” value (2D HepaRG cells; highest concentration, 2D cultures) was 9 fold and the “Relative viability (ATP assay)” value (3D HepaRG spheroids; 250 μM, 3D spheroids) was 56%. For the same compound, the “Fold increase in % tail DNA compared to control” value (3D HepaRG spheroids; highest concentration, 3D cultures) was 13 fold, the “Relative survival (%)” value (TK6 cells [5]; 50 μM) was 115.3% and the “Relative survival (%)” value (TK6 cells [5]; 100 μM) was 108.7%. For the same compound, the “Relative survival (%)” value (TK6 cells [5]; 200 μM) was 86.0%, the “Relative survival (%)” value (TK6 cells [5]; 300 μM) was 65.9% and the “Mutagenicity on a molar basis relative to NDEA” value (TK6 cells [5]; TK6 cells, 1% hamster liver S9, NDEA at 100 μM) was “lower than NDEA”. For the same compound, the “U/L (ratio of the BMDU to BMDL)” value (TA1535; [8]) was 3.8, the “U/L (ratio of the BMDU to BMDL)” value (TA1535; [9]) was 3.1 and the “U/L (ratio of the BMDU to BMDL)” value (TA1535; [10]) was 3.0. The “U/L (ratio of the BMDU to BMDL)” value (TA1535; [11]) was 3.4, the “U/L (ratio of the BMDU to BMDL)” value (TA1535; [12]) was 2.8 and the “Fold increase in %MN over controls” value (TK6 cells [6]; 2.5 μM, 24-h continuous incubation with 0.4% hamster liver S9) was 4.4 fold. For the same compound, the “Fold increase in %MN over controls” value (TK6 cells [6]; 100 μM, 4-h treatment with 2% hamster liver S9) was 4.1 fold, the “Potency in inducing MN relative to NDEA” value (TK6 cells [6]; 4-h and 24-h treatments in the presence of S9, NDEA at 100 μM) was “more potent than NDEA” and the “U/L (ratio of the BMDU to BMDL)” value (TA100; [8]) was 3.6. For the same compound, the “U/L (ratio of the BMDU to BMDL)” value (TA100; [9]) was 2.4, the “U/L (ratio of the BMDU to BMDL)” value (TA100; [11]) was 2.7 and the “U/L (ratio of the BMDU to BMDL)” value (TA100; [12]) was 2.5. For the same compound, the “Fold increase in %MN” value [7] was 1.6 fold.

Read-outs that look alike come from different tables or passages of the source.
